By UniProt entry, the sequences of proteins in these tests, tags left out.
UniProt Q92769, whole entry: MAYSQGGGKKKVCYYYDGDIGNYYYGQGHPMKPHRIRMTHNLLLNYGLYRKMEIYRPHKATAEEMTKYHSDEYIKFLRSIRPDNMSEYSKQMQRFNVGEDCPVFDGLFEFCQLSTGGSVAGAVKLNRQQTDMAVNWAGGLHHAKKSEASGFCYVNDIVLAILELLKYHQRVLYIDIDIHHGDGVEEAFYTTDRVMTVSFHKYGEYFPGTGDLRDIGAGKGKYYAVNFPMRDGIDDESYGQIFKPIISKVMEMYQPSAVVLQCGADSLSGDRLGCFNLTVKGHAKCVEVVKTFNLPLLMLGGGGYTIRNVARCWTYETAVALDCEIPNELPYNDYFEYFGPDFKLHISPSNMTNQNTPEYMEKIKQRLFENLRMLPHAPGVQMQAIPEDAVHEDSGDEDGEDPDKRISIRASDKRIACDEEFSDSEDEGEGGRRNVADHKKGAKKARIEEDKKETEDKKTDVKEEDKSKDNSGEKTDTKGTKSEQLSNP

In patent US9908899B2 (BIOMARIN PHARMACEUTICAL INC., priority 2011, dated 2018):

Biological target: HDAC2 (Homo sapiens (Human), UniProt Q92769)
Test: HDAC activity inhibition assay, HDAC2
Assay type: biochemical
Description: The HDAC activity inhibition assay was performed as follows to determine the ability of a test compound to inhibit HDAC enzymatic activity. […] Following pre-incubation, Fluor-de-Lys™ substrate (Enzo Life Sciences, Plymouth Meeting, Pa., BML-KI104-0050) was added to a final concentration of 10 μM and plates were further incubated for 30 minutes at room temperature. […] IC50 values were calculated by using a sigmoidal dose-response (variable slope) equation in GraphPad Prism® 5 for Windows (GraphPad Software, La Jolla, Calif.).

In the case of `Nc1ccccc1NC(=O)c1ccc(C=C2COC2)c(Cl)c1` [F11], the IC50 is reported as 1000 to 5000 nM.
